Reference: article PMC10291549, “Reaction Behavior of [1,3-Diethyl-4,5-diphenyl-1H-imidazol-2-ylidene] Containing Gold(I/III) Complexes against Ingredients of the Cell Culture Medium and the Meaning on the Potential Use for Cancer Eradication Therapy” (Journal of Medicinal Chemistry, 2023)

Assay: FCS influence on stability of 7 in RPMI 1640 (protein binding, HPLC)
Format: in vitro ADME
Conditions: 7 (30 μM) in RPMI 1640 + 10% FCS, 4 h, 37 °C, dark; protein precipitation with ACN; from HPLC peak areas
Protocol: The complex (conc. 30 μM) dissolved in RPMI 1640 medium supplemented with 10% FCS was incubated for 4 h at 37 °C in the dark. Subsequently, the proteins were precipitated with ACN and the supernatant was dried by lyophilization. The remaining complexes were extracted from the lyophilizate with DCM. The organic layer was evaporated, and the residue was finally dissolved in 1 mL of ACN. This solution was then analyzed by HPLC as described above.
To 11 mL of RPMI 1640 including 10% FCS, 11 μL of a freshly prepared 3 mM DMF solution of 7 was added. The solution was then incubated for 4 h at 37 °C in the dark. Proteins were precipitated with 33 mL of ACN. The mixture was cooled to −30 °C and stored for 2 h at −20 °C. Subsequently, the supernatant was separated by centrifugation (3000 rpm), collected, and dried by lyophilization. The lyophilizate was extracted three times with 5 mL of DCM and finally dried under reduced pressure. The residue was taken up in 1 mL of ACN, and 30 μL was analyzed by the HPLC method described above. Peak area was used for quantification. The calibrations of 5, 7, and 8 were obtained by injecting 30 μL of the respective solution of pure substances in ACN at a concentration of 1–30 μM (R^2 > 0.99).

Chlorido[1,3-diethyl-4,5-diphenyl-1H-imidazol-2-ylidene]gold(I) [Complex 5]
concentration in the free fraction after incubation of 7: 10.12 µM
